In EP0518216A2, “N-/Arylethyl/-N-alkyl-2-(1-pyrrolidinyl)ethylamine derivatives for CNS disorders” (G.D. Searle & Co., priority 1991, dated 1992) one finds Kd data, which are given here for one compound.

By UniProt entry, the sequences of proteins in these tests, tags left out. Where a name states a change or a piece, a line headed by the entry shows the natural chain unless it says otherwise.
UniProt P41144: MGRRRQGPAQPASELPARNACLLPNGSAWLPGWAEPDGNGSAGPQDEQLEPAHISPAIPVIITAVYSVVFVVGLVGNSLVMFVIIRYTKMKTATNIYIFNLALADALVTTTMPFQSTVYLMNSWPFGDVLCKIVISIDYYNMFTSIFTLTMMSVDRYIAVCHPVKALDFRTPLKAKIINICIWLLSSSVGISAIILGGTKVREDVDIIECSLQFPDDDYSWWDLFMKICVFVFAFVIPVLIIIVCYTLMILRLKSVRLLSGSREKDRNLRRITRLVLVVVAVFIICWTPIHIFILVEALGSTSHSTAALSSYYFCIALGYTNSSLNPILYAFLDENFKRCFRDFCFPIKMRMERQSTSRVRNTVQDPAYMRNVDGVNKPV

In the experiment the target is Kappa receptors (Cavia porcellus, UniProt P41144). In words: Kappa opiate receptor binding assay with [3H]bremazocine in the presence of DAGO and DSTLE. The following applies: guinea pig brain; determined in independent experiments.

On to `CCC12CCN(CC3(O)CC3)C(Cc3ccc(O)cc31)C2(C)C` (stereo not shown) [[^3H]Bremazocine], for which the Kd turned out to be 0.64 nM.
